Values of other authors as cited in US20070010657A1, “Cytoplasmic dynein heavy chain 1 genes, expression products, non-human animal model uses in human neurological diseases” (priority 2002, published 2007).

Tested on: ALS diagnosed patients
Conditions: clinical use, background statement

Nc1nc2ccc(OC(F)(F)F)cc2s1 [Riluzole]
survival of ALS diagnosed patients: extend survival of ALS diagnosed patients for a few months
